Hit rate of the full screen: of about 10,000 compounds, about 15 (0.1%) were called active.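 Rule for the calls: active = highest signal at least 8 times the median of untreated cell-only control wells at some dose; inactive = the rest.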 A selection follows.

Chains of the proteins cited; added tags and fusions are not shown. A line that says so, or that is headed by a name, gives the form on record, which may keep a tag or linker.
UniProt P13569, with tags, fused parts or gaps F508del: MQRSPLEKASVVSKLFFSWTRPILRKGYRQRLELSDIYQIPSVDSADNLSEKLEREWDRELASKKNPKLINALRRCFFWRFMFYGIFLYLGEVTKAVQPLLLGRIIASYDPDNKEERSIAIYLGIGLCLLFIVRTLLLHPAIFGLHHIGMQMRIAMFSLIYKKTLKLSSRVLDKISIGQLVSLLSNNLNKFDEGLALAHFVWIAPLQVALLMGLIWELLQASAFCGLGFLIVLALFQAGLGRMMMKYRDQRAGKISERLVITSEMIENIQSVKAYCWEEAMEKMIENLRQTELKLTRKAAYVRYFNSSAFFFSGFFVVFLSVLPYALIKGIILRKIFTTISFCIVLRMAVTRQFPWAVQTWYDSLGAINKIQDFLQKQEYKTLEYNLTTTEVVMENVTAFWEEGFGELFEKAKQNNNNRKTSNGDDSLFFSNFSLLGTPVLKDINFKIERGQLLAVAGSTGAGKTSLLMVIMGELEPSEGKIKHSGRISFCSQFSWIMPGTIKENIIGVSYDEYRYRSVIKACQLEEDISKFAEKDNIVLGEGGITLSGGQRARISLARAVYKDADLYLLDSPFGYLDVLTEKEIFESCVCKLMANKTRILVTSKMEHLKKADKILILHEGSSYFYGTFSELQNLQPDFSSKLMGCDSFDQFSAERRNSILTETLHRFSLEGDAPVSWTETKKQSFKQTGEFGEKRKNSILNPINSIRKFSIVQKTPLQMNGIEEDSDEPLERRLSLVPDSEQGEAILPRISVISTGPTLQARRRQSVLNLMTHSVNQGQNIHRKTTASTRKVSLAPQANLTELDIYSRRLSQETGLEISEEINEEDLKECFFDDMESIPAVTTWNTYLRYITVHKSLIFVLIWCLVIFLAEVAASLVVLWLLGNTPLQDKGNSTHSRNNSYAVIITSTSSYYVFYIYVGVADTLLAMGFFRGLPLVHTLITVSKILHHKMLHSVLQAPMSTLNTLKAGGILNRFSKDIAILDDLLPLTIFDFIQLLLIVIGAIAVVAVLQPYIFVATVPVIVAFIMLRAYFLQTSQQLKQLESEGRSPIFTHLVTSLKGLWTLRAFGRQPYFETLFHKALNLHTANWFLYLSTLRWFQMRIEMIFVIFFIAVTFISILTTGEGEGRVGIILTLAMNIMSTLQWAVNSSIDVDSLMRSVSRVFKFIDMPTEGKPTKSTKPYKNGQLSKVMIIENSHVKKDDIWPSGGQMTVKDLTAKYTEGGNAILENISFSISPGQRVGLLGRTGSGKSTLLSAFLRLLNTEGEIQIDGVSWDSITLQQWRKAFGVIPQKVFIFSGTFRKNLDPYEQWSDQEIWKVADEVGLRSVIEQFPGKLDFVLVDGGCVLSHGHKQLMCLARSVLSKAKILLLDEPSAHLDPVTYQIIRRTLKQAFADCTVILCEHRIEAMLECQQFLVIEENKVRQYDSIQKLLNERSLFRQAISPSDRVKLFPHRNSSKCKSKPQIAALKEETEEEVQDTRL

The nature of experiment [1]: compounds raising F508del-CFTR protein level – cell-based, HeLa F508del-CFTR, immunofluorescence, viability, primary screen (AID 1224863).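 For fold increase: total CFTR protein by anti-CFTR immunofluorescence in fixed cells.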 Particulars: immunofluorescence total CFTR, 24 h, stronger effect = higher value; min viability: measured here: HeLa viability, alamarBlue, dose 20, library dosed in µg/mL unless noted; viability: measured here: primary viability 10 ug/mL, library dosed in µg/mL unless noted. A general note: Resazurin is reduced to fluorescent resorufin, in cell work by metabolically active cells.

The target in experiment [2] is Cystic fibrosis transmembrane conductance regulator (Homo sapiens) (UniProt P13569). Described as above. Particulars: immunofluorescence total CFTR, 24 h; fold increase: measured here: primary screen 10 ug/mL, library dosed in µg/mL, stronger effect = higher value unless noted; max fold increase: dose 10, library dosed in µg/mL, stronger effect = higher value unless noted; outcome: library dosed in µg/mL unless noted.

Turning to `O=S(=O)(Nc1cc2c(cc1Br)OCCO2)c1ccc(Br)cc1`, in experiment [1], the viability (as a rule, a read-out of living cells in per cent, often relative to untreated cells) is 88%. In experiment [2], the fold increase was 1.03 and the compound was classed as inactive.
The like results for `Cc1cc(C)n2c(SCc3cc(-c4ccccc4)on3)nnc2n1` were, in that order, 97%, 1.06 and “inactive”.
The like results for `CCCCS(=O)(=O)Nc1ccc(F)c(N)c1` were, in that order, 102%, 0.96 and “inactive”.
For `O=C(CNC(=O)c1ccco1)NC1CCC2CCCCC2C1` (centres undefined), in that order: 75%, 1.02 and “inactive”.
Turning to `Cc1cc(C(=O)CSc2nnc(-c3ccoc3C)o2)c(C)s1`, the viability in experiment [1] is 84%. In experiment [2], the fold increase is 0.89 and the compound was called inactive.
For `O=C(CSc1nnnn1C1CC1)NC(c1cccs1)C1CCCC1` (centres undefined), in that order: 90%, 0.94 and “inactive”.
Consider `CCOC(=O)c1oc2ccccc2c1COC(=O)c1ccc2c(c1)CCC(=O)N2`, for which the viability in experiment [1] came to 81%. For the same compound, in experiment [2], the fold increase stood at 1 and the call was inactive.
The like results for `CCn1cnnc1SCCCCN1C(=O)c2ccccc2C1=O` were, in that order, 106%, 1.03 and “inactive”.
`CC(=O)N1C=Cc2ccccc2C1CC(=O)Nc1cc2c(cc1Cl)OCO2` (centres undefined): the viability in experiment [1] turned out to be 89%. In experiment [2], the fold increase stood at 0.97 and the compound was classed as inactive.
`O=S(=O)(Cc1ccc(F)cc1Cl)C12CC3CC(CC(C3)C1)C2`: in experiment [1], the viability was determined as 104%. In experiment [2], the fold increase is 1.1 and the call was inactive.
For `CCOCCCNc1nnc(SC(C(=O)NC(N)=O)C(C)C)s1` (centres undefined), in that order: 97%, 0.95 and “inactive”.
For `Cc1nc(CNC(C(=O)O)C(C)C)cs1` (centres undefined), in that order: 88%, 1.06 and “inactive”.
The like results for `CC(C)Cn1nnc(-c2ccc(Cl)cc2)n1` were, in that order, 99%, 1.4 and “inactive”.
`O=C(O)c1cc(C2CC2)nc2onc(-c3ccco3)c12`: the viability in experiment [1] was found to be 109%. In experiment [2], the fold increase was determined as 1.11 and the call was inactive.
For `N#Cc1nc2c(S(=O)(=O)c3ccc(Cl)cc3)c(N)n(Cc3ccc(C(F)(F)F)cc3)c2nc1C#N`, in that order: 87%, 0.86 and “inactive”.
As to `Cc1cc(C)n2c(=S)n(CN(C)Cc3ccccc3Cl)nc2n1`, in experiment [1], the viability stood at 97%. In experiment [2], the fold increase came to 0.97 and the compound was called inactive.
In the case of `CC(NCC(O)c1ccccc1)c1ccccc1` (centres undefined), the viability in experiment [1] was determined as 103%. Also, in experiment [2], the fold increase stood at 1.06 and the result was inactive.
For `CC(Cc1ccc(Cl)cc1)NC(=O)C1(C)CC1(Cl)Cl` (centres undefined), in that order: 94%, 0.98 and “inactive”.
The like results for `COc1ccc2c(COC(=O)c3ccc4c(c3)S(=O)(=O)N=C3CCCCCN34)cc(=O)oc2c1` were, in that order, 83%, 1.02 and “inactive”.
In the case of `CCc1c(C)sc2nc(SCCO)n(CCOC)c(=O)c12`, in experiment [1], the viability was determined as 95%. In experiment [2], the fold increase is 1 and the compound was classed as inactive.
The like results for `CCOC(=O)C1=C(CC)Nc2ccccc2N=C1NC(=O)C12CC3CC(CC(Cl)(C3)C1)C2` were, in that order, 85%, 1.09 and “inactive”.
Turning to `Cn1ccc(S(=O)(=O)N2CCN(C(=O)CCC(=O)c3cccs3)CC2)c1`, the viability in experiment [1] was found to be 103%. Besides, in experiment [2], the fold increase is 1.19 and the outcome was inactive.
On to `CCc1cc(OCCCCNC)ccc1Cl`, for which the viability in experiment [1] is 104%. In addition, in experiment [2], the fold increase came out at 1.06 and the call was inactive.
For `Cc1c(C(=O)CN2C(=O)NC3(CCOc4ccccc43)C2=O)sc2ccccc12` (centres undefined), in that order: 115%, 1.07 and “inactive”.
For `COC(=O)c1ccc(OCC(=O)c2ccc3c(c2)CCO3)c(OC)c1`, in that order: 97%, 1.01 and “inactive”.
In the case of `CC(CCc1ccco1)NC(=O)N1CCN(Cc2nc3scc(-c4cccs4)c3c(=O)[nH]2)CC1` (centres undefined), in experiment [1], the viability stood at 92%. In experiment [2], the fold increase stood at 0.93 and the compound was classed as inactive.
The like results for `c1ccc2c(c1)ncn2CN1CCN(Cc2csc3ccccc23)CC1` were, in that order, 107%, 1.18 and “inactive”.
For `Cc1cccc(CN2CCN(CN3C(=O)C(=O)N(C(C)C)C3=O)CC2)c1`, in that order: 95%, 1.02 and “inactive”.
In the case of `CN(C)S(=O)(=O)N1CCN(C(=O)Nc2cccc3c2CCCC3)CC1`, the viability in experiment [1] was found to be 102%. Moreover, in experiment [2], the fold increase is 0.97 and the compound was called inactive.
As to `COCC(C)NC(=O)c1sccc1C` (centres undefined), in experiment [1], the viability stood at 102%. Moreover, in experiment [2], the fold increase turned out to be 0.9 and the call was inactive.
For `CC(C)(C)OC(=O)N1CC=C(n2c(=O)n(CN3CCN(c4ccccc4)CC3)c3ccccc32)CC1`, in that order: 98%, 1.06 and “inactive”.
For `COc1ccc(C)cc1-n1nnnc1SCC1CC1(Cl)Cl` (centres undefined), in that order: 86%, 0.87 and “inactive”.
The like results for `Cn1nnnc1SCc1ncc(-c2ccc(F)cc2)o1` were, in that order, 94%, 1.03 and “inactive”.
Consider `CN(C)S(=O)(=O)c1ccc(CN2C(=O)NC(C)(c3ccco3)C2=O)o1` (centres undefined), for which the viability in experiment [1] was 97%. Moreover, in experiment [2], the fold increase was determined as 0.98 and the result was inactive.
On to `COc1ccc(S(=O)(=O)Nc2ccc(N3CCCC3)cc2)cc1OC`, for which the viability in experiment [1] came to 84%. Also, in experiment [2], the fold increase came out at 0.85 and the compound was classed as inactive.
Regarding `N#Cc1ccc(CS(=O)(=O)N2CCCCCCC2)cc1`, the viability in experiment [1] was 95%. Besides, in experiment [2], the fold increase worked out at 1.03 and the outcome was inactive.
For `Nc1cnn(CCO)c1`, in experiment [1], the viability turned out to be 92%. Besides, in experiment [2], the fold increase worked out at 0.96 and the call was inactive.
Take `CC(c1cc2ccccc2o1)N(C)Cc1noc(C(C)(C)C)n1` (centres undefined): the viability in experiment [1] worked out at 89%. In experiment [2], the fold increase came out at 0.88 and the outcome was inactive.
As for `N#Cc1nncn1-c1ncnc2sc3c(c12)CCC3`, the viability in experiment [1] is 95%. In experiment [2], the fold increase came to 1.06 and the compound was called inactive.
Take `CCNc1nc(C)nc2sc(CC)cc12`: the viability in experiment [1] worked out at 84%. Further, in experiment [2], the fold increase was determined as 0.96 and the compound was classed as inactive.
Take `CCC(C)(C)NC(=O)CCNC(=O)/C=C/c1ccco1`: the viability in experiment [1] is 80%. In addition, in experiment [2], the fold increase was 0.85 and the result was inactive.
For `CC(C)Sc1nc2cc(Cl)ccc2c(=O)n1CC1CCCO1` (centres undefined), the viability in experiment [1] is 90%. Further, in experiment [2], the fold increase amounted to 0.87 and the call was inactive.
As for `CC(C)(C)N=C1NN=C(c2cccc(F)c2)CS1`, the viability in experiment [1] came out at 75%. In experiment [2], the fold increase was determined as 0.85 and the call was inactive.

The values above are taken from PubChem BioAssay AID1224863 (Southern Research Institute, 2016).
